PubChem BioAssay AID504634 (The Scripps Research Institute Molecular Screening Center, 2011)
The entries are a selection whose mix differs from that of the whole data set. Active and inactive are the calls of the source. No stated cut-off is given here; in the data, active means inhibition mostly above about 23% (no sharp cut-off); inactive means mostly below about 18%.

By UniProt entry, the sequences of proteins in these tests, tags left out.
UniProt P47898, whole entry, looked up: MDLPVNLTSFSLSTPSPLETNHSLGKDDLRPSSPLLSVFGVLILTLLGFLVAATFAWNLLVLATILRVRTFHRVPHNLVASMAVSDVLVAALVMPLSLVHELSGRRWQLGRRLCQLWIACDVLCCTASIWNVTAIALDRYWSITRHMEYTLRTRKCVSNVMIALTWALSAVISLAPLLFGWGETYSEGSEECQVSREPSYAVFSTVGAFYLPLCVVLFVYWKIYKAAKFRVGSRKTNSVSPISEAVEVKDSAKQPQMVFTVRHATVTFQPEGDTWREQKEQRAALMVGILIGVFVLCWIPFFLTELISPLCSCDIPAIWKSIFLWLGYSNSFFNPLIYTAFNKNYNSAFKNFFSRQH

These molecules were tested against 5-hydroxytryptamine receptor 5A (Homo sapiens) (UniProt P47898) (assay: HTR5A inverse agonists in luminescence cell assay, primary screen, counter-screen for OPRM1-OPRD1 heterodimer inverse agonist project, full-deck HTS (AID 504634;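 further: 0% = cells with DMSO and 100% = no-cell wells with DMSO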)). Conditions: HTR5A cell line, inverse agonism, at 9.3 µM, active compounds read high.
With `Cn1c(=O)c2c(nc(CN3CCN(c4ccccc4F)CC3)n2CCN2CCOCC2)n(C)c1=O` the inhibition was inactive: 3.87%. With `Fc1ccc2c(c1)nnn2C1CCN(Cc2c(Cl)cccc2Cl)CC1` the inhibition was inactive: -4.9%. For `CC(C)[C@H](NC(=O)N1CCn2c1nc1ccccc12)C(=O)NCc1ccco1`, the inhibition was inactive: 9.44%. `COc1ccc(CNC(=O)[C@H](CCSC)NC(=O)N2CCn3c2nc2ccccc23)cc1` was tested, and the inhibition was inactive: -5.15%. In the case of `CCOC(=O)c1ccc(N2C(=O)CC(N3CCC(Nc4ccc(F)cc4)CC3)C2=O)cc1` (stereo unspecified), the inhibition is reported as inactive: -10.5%. With `O=C(Cn1cnc2ccccc21)N/N=C/c1ccccc1[N+](=O)[O-]` the inhibition was inactive: 9.8%. With `N#CCCN(C(=O)COC(=O)C(O)(c1ccccc1)c1ccccc1)c1ccc(F)cc1` the inhibition was inactive: 9.79%. In the case of `O=C(CSc1nc2ccccc2n1CC(=O)N1CCCC1)Nc1nccs1`, the inhibition is reported as inactive: 1.02%. In the case of `O=C(Nc1ccccc1)N1CCn2c1nc1ccccc12`, the inhibition is reported as inactive: 4.92%. In the case of `CC(C)CN(C(=O)Cn1c(C(F)(F)F)nc2ccccc21)C1CCS(=O)(=O)C1` (stereo unspecified), the inhibition is reported as inactive: -4.08%. `CN(C(=O)Cc1ccc(Cl)c(Cl)c1)[C@H]1CC[C@@]2(CCCO2)C[C@@H]1N1CCCC1` was tested, and the inhibition was inactive: -27.9%. With `Cc1ccc2c(c1)C1CN(C)CCC1N2C(=S)NC(=O)c1ccc(Br)cc1` (stereo unspecified) the inhibition was inactive: 12.5%. With `CCc1cccc(C)c1NC(=O)Cn1c(NCCO)nc2ccccc21` the inhibition was inactive: 12.8%. `CN(C)C(=O)c1cc([N+](=O)[O-])cc2c1-c1c(cc([N+](=O)[O-])cc1[N+](=O)[O-])C2=O` was tested, and the inhibition was inactive: 21.4%. In the case of `O=[N+]([O-])c1ccc2c(c1)nnn2O`, the inhibition is reported as inactive: -5.29%. With `CC1CCCCN1C(=O)Cn1cnc2c1c(=O)n(C)c(=O)n2C` (stereo unspecified) the inhibition was inactive: -9.91%. In the case of `Cn1c(=O)c2c(ncn2CC(=O)N(Cc2ccccc2)c2ccccn2)n(C)c1=O`, the inhibition is reported as inactive: -5.44%. For `Cc1ccc(C(=O)Nc2nc3ccccc3n2CCN2CCCC2)cc1`, the inhibition was inactive: -20.9%. With `CCN(CC)CCn1c(NCc2ccc(C)o2)nc2ccccc21` the inhibition was inactive: 16%. With `O=C(Nc1nc2ccccc2n1CCN1CCCC1)C1CCCCC1` the inhibition was inactive: -2.54%. `CCC(C)NC(=O)Cn1c(COc2ccc(Cl)cc2Cl)nc2ccccc21` (stereo unspecified) was tested, and the inhibition was inactive: 5.21%. With `CCC(C)[C@H](NC(=O)N1CCn2c1nc1ccccc12)C(=O)NCc1ccc(OC)cc1` (stereo partly specified) the inhibition was inactive: -19.9%. With `Cn1c(=O)[nH]c(=O)c2c1ncn2CCN1CCOCC1` the inhibition was inactive: 7.4%. With `CC(=O)Nc1nc2ccccc2n1CCN1CCOCC1` the inhibition was inactive: -19.3%. `Cc1nc2ccccc2n1C1CC(=O)N(N(C)C)C1=O` (stereo unspecified) was tested, and the inhibition was inactive: 13%. `CCOC(=O)C1=C(Cn2cnc3ccccc32)NC(=O)NC1c1ccc(OC)cc1` (stereo unspecified) was tested, and the inhibition was inactive: 14%. With `CC(=O)OCCNC(=O)Cn1cnc2c1c(=O)n(C)c(=O)n2C` the inhibition was inactive: -11.7%. For `Cc1cccc(C)c1NC(=O)Cn1cnc2c(=O)n(C)c(=O)n(C)c21`, the inhibition was inactive: -7.67%. `CCCCNC(=O)Cn1c(=O)n(C)c2ccccc21` was tested, and the inhibition was inactive: -7.2%. `O=C(Cn1cnc2c(NCc3ccccc3)ncnc21)NCCc1cc2ccccc2[nH]1` was tested, and the inhibition was inactive: 0.79%. For `NC(=O)Nc1ccc([As](=O)(O)O)cc1`, the inhibition was inactive: 10.3%. For `O=C(Cn1cnc2ccccc21)N/N=C/c1cccc([N+](=O)[O-])c1`, the inhibition was inactive: -1.83%. `CC1Cc2ccccc2N1C(=O)CSc1nc2ccccc2n1CC(=O)N1CCOCC1` (stereo unspecified) was tested, and the inhibition was inactive: -17.7%. For `Nc1nc2ccccc2n1CCN1CCCC1`, the inhibition was inactive: -21.9%. In the case of `CC(C)NC(=S)N1CCn2c(nc3ccccc32)C1`, the inhibition is reported as inactive: -4.34%. For `O=C(CCCCCNC(=O)N1CCn2c1nc1ccccc12)NCc1ccc(Cl)cc1`, the inhibition was inactive: -7.3%. In the case of `Cc1nn2c3ccccc3n(CCN3CCCCC3)c2nc1=O`, the inhibition is reported as inactive: 16.5%. For `Cc1ccc2c(c1)C1CN(C)CCC1N2S(=O)(=O)c1ccc(C#N)cc1` (stereo unspecified), the inhibition was inactive: 6.25%. For `FC(F)(F)c1ccc2c(c1)ncn2C1CCN(Cc2nnnn2C2CCCCC2)CC1`, the inhibition was inactive: -15.8%. `CCOC(=O)C1=C(C)N=C2SCCC(=O)N2[C@@H]1/C=C/c1ccccc1` was tested, and the inhibition was inactive: 14.1%. With `COC(=O)[C@H](CC(C)C)NC(=O)Cn1cnc2c(OCc3ccccc3)ncnc21` the inhibition was inactive: 2.72%. With `COc1ccc(-c2csc(NCCn3c(C)nc4cc(C(F)(F)F)ccc43)n2)cc1` the inhibition was inactive: -27.2%. `O=C(Cn1c(-c2cncs2)nc2ccccc21)NC1CCCC1` was tested, and the inhibition was inactive: -30.3%. `CCN(CC)CCn1c(NCc2cc(OC)ccc2OC)nc2ccccc21` was tested, and the inhibition was inactive: 13.6%. In the case of `N#CCC(=O)N1CCn2c1nc1ccccc12`, the inhibition is reported as inactive: 1.8%. With `O=C(Cn1c(CO)nc2ccccc21)NC1CCCCCC1` the inhibition was inactive: 1.55%.
